This note sets out measurements from ChEMBL document CHEMBL6134818, “Development of 3-arylaminothiophenic-2-carboxylic acid derivatives as new FTO inhibitors showing potent antileukemia activities” (Eur J Med Chem, 2025).

Amino acid sequences for entries named in this document (tags omitted).
UniProt Q9C0B1, whole entry, looked up: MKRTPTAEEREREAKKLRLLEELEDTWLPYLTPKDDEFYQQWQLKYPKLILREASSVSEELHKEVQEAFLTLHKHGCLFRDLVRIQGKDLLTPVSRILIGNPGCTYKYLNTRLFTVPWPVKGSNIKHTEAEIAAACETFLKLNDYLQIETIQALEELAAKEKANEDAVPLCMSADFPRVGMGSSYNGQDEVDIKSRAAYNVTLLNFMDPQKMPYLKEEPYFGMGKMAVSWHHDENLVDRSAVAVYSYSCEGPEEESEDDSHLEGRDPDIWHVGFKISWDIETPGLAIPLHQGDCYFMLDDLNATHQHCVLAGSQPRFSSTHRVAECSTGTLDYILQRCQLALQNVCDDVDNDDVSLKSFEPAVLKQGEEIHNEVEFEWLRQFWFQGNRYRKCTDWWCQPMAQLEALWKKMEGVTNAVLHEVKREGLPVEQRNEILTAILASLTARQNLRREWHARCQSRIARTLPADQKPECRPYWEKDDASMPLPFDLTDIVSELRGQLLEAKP

The experiment has as its target Alpha-ketoglutarate-dependent dioxygenase FTO (Homo sapiens, UniProt Q9C0B1).

In the case of `Cc1n[nH]c(C)c1-c1cc(Cl)c(Nc2ccsc2C(=O)O)c(Cl)c1`, the ΔTm amounted to 2 °C.
